In patent publication US6046190A, “Hydroxyethylamino sulphonamides useful as retroviral protease inhibitors” (G.D. Searle & Co., priority 1996, dated 2000):
pIC50: −log10 of the molar value.

Target: T1, HIV protease (Human immunodeficiency virus type 1 group M subtype B, UniProt P04585)
T1 construct: HIV protease is diluted in the assay buffer to a final enzyme concentration of 12.3 nanomolar, based on a molecular weight of 10,780
Type: biochemical
Details: pH 6.4
Description: The enzyme method is described below. […] The positive control is MVT-101 (Miller, M. et al, Science, 246, 1149 (1989)]. The assay conditions are as follows:
20 mM sodium phosphate, pH 6.4
The above described substrate is dissolved in DMSO, then diluted 10 fold in assay buffer. Final substrate concentration in the assay is 80 μM.
The final concentration of DMSO is 14% and the final concentration of glycerol is 18%. The test compound is dissolved in DMSO and diluted in DMSO to 10× the test concentration; 10 μl of the enzyme preparation is added, the materials mixed and then the mixture is incubated at ambient temperature for 15 minutes. The enzyme reaction is initiated by the addition of 40μl of substrate. The increase in fluorescence is monitored at 4 time points (0, 8, 16 and 24 minutes) at ambient temperature. Each assay is carried out in duplicate wells.

`COc1ccc(S(=O)(=O)N(CC(C)C)CC(O)C(Cc2ccccc2)NC(=O)c2ccccc2C)cc1` (stereo not shown) [Table 5A Entry 26] showed a pIC50 of 8.30.
